Experimental data reported in EP4663640A1 (Shanghai Institute of Materia Medica, Chinese Academy of …, priority 2023, dated 2024).

Target: T1, hTRPC5 (Homo sapiens, UniProt Q9UL62)
T1 construct: expressed in transfected cells; host or cells: HEK-293
T1 sequence (Q9UL62 1-973): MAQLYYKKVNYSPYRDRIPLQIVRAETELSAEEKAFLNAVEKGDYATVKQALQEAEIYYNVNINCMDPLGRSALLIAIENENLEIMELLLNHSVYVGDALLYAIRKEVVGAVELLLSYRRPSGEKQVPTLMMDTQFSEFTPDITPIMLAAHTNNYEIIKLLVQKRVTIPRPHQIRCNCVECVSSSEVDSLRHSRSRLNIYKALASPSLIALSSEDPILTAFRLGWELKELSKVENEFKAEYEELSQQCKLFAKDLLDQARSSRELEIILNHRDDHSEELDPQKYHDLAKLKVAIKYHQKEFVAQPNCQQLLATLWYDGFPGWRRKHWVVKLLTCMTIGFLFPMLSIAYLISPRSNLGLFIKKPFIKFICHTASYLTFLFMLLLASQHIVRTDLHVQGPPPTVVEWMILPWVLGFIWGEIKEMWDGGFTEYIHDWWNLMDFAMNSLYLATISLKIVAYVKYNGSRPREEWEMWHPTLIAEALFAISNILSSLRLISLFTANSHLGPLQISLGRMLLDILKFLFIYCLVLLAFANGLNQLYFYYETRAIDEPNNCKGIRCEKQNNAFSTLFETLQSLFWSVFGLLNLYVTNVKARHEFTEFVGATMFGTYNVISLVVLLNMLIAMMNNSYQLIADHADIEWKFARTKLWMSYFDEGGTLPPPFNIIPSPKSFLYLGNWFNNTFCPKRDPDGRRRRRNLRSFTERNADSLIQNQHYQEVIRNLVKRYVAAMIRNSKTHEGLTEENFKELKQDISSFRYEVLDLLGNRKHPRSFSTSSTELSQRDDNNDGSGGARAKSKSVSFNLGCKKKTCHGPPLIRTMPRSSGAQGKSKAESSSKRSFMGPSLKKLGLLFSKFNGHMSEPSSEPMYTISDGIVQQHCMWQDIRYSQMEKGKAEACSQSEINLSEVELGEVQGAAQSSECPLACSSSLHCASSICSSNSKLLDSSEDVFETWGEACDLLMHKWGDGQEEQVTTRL
Test: TRPC5 inhibitory activity assay (FLIPR calcium fluorescence, Englerin A stimulation)
Assay type: cell-based

Q: For `Cn1c(=O)n(CCCO)c(=O)c2c1cc(C1CC1C1CCCC1)n2Cc1ccc(Cl)cc1` (stereo not shown) [Example E3, 5-(4-chlorobenzyl)-6-(2-cyclopentylcyclopropyl)-3-(3-hydroxypropyl)-1-methyl-1,5-dihydro-2H-pyrrolo[3,2-d]pyrimidine-2,4(3H)-dione], which IC50 is on record?
A: The IC50 was 50 to 100 nM.
